From ChEMBL document CHEMBL3886452, “Buprenorphine analogs” (2015)

How the values were obtained:
[1] = target: T1, Mu-type opioid receptor (Homo sapiens, UniProt P35372)
[2] = target: T1, Mu-type opioid receptor; remark: listed apart in the source
[3] = target: T2, Kappa-type opioid receptor (Homo sapiens, UniProt P41145)
[4] = target: Delta-type opioid receptor (Homo sapiens, UniProt P41143)
[5] = target: T2, Kappa-type opioid receptor; conditions: sf9

CO[C@]12CC[C@@]3(C[C@@H]1COCc1ccccc1)[C@H]1Cc4ccc(C(O)CO)c5c4[C@@]3(CCN1CC1CC1)[C@H]2O5 (stereo not given in full)
Ki [1]: 154 nM
EC50 [2]: 860 nM
EC50 [3]: 462 nM

CO[C@]12CC[C@@]3(C[C@@H]1COCc1ccccc1)[C@H]1Cc4ccc(C(=O)O)c5c4[C@@]3(CCN1CC1CC1)[C@H]2O5
Ki [1]: 1100 nM
Ki [4]: 3000 nM
EC50 [3]: 288 nM

CO[C@]12CC[C@@]3(C[C@@H]1COCc1ccccc1)[C@H]1Cc4ccc(OCC(=O)O)c5c4[C@@]3(CCN1CC1CC1)[C@H]2O5
EC50 [2]: 336 nM
EC50 [3]: 204 nM

COc1ccc2c3c1O[C@H]1[C@@]4(OC)CC[C@@]5(C[C@@H]4COCC(O)CO)[C@@H](C2)N(CC2CC2)CC[C@]315 (stereo not given in full)
Ki [4]: 3250 nM
EC50 [3]: 517 nM

COc1ccc2c3c1O[C@H]1[C@@]4(OC)CC[C@@]5(C[C@@H]4COCc4ccc(Cc6nn[nH]n6)cc4)[C@@H](C2)N(CC2CC2)CC[C@]315
Ki [1]: 1770 nM
Ki [5]: 181 nM

COc1ccc2c3c1O[C@H]1[C@@]4(OC)CC[C@@]5(C[C@@H]4COCC(N)=O)[C@@H](C2)N(CC2CC2)CC[C@]315
Ki [1]: 210 nM
EC50 [2]: 1130 nM
EC50 [3]: 1440 nM

CO[C@]12CC[C@@]3(C[C@@H]1COCc1ccccc1)[C@H]1Cc4ccc(CC(O)CO)c5c4[C@@]3(CCN1CC1CC1)[C@H]2O5 (stereo not given in full)
Ki [1]: 261 nM
EC50 [3]: 148 nM

COC(=O)COc1cccc(COC[C@H]2C[C@@]34CC[C@]2(OC)[C@@H]2Oc5c(O)ccc6c5[C@@]23CCN(CC2CC2)[C@@H]4C6)c1
Ki [5]: 0.2 nM

CO[C@]12CC[C@@]3(C[C@@H]1COCc1cccc(OCC(=O)O)c1)[C@H]1Cc4ccc(O)c5c4[C@@]3(CCN1CC1CC1)[C@H]2O5
EC50 [3]: 28.5 nM

COc1ccc2c3c1O[C@H]1[C@@]4(OC)CC[C@@]5(C[C@@H]4COC(=O)[C@@H](N)C(C)O)[C@@H](C2)N(CC2CC2)CC[C@]315 (stereo not given in full)
Ki [1]: 60.1 nM
EC50 [2]: 79.3 nM
EC50 [3]: 47.6 nM

CO[C@]12CC[C@@]3(C[C@@H]1COCc1ccccc1)[C@H]1Cc4ccc(NC(C)=O)c5c4[C@@]3(CCN1C)[C@H]2O5
Ki [1]: 133 nM
EC50 [2]: 694 nM
EC50 [3]: 951 nM
Ki [5]: 15.2 nM

COc1ccc2c3c1O[C@H]1[C@@]4(OC)CC[C@@]5(C[C@@H]4CNCC(=O)O)[C@@H](C2)N(CC2CC2)CC[C@]315
Ki [1]: 349 nM
EC50 [2]: 218 nM
EC50 [3]: 964 nM
Ki [5]: 51.4 nM

COc1ccc2c3c1O[C@H]1[C@@]4(OC)CC[C@@]5(C[C@@H]4COC(=O)[C@@H](N)CO)[C@@H](C2)N(CC2CC2)CC[C@]315
Ki [1]: 362 nM
EC50 [3]: 603 nM

COCCOCCOCCOCCOCCOC[C@H]1C[C@@]23CC[C@]1(OC)[C@@H]1Oc4c(OC)ccc5c4[C@@]12CCN(CC1CC1)[C@@H]3C5
Ki [1]: 216 nM
Ki [4]: 5530 nM
EC50 [3]: 817 nM

COc1ccc2c3c1O[C@H]1[C@@]4(OC)CC[C@@]5(C[C@@H]4CSc4nncs4)[C@@H](C2)N(CC2CC2)CC[C@]315
Ki [1]: 188 nM
Ki [4]: 1730 nM
EC50 [3]: 192 nM

COc1ccc2c3c1O[C@H]1[C@@]4(OC)CC[C@@]5(C[C@@H]4COC(=O)[C@@H](N)CCC(N)=O)[C@@H](C2)N(CC2CC2)CC[C@]315
Ki [1]: 170 nM
Ki [5]: 12.7 nM

COc1ccc2c3c1O[C@H]1[C@@]4(OC)CC[C@@]5(C[C@@H]4CSc4nc(C)ns4)[C@@H](C2)N(C)CC[C@]315
Ki [1]: 1540 nM
Ki [4]: 9900 nM
Ki [5]: 400 nM

COc1ccc2c3c1O[C@H]1[C@@]4(OC)CC[C@@]5([C@@H](CC#N)[C@@H]4COCc4ccccc4)[C@@H](C2)N(CC2CC2)CC[C@]315
Ki [1]: 60.5 nM
EC50 [3]: 824 nM
Ki [5]: 6.75 nM

COc1ccc2c3c1O[C@H]1[C@@]4(OC)CC[C@@]5(C[C@@H]4COCc4cccc(C(=N)N)c4)[C@@H](C2)N(CC2CC2)CC[C@]315
Ki [1]: 35.8 nM
EC50 [3]: 135 nM

COc1ccc2c3c1O[C@H]1[C@@]4(OC)CC[C@@]5(C[C@@H]4CNCC(N)=O)[C@@H](C2)N(CC2CC2)CC[C@]315
EC50 [2]: 581 nM
EC50 [3]: 1250 nM
Ki [5]: 15.8 nM

COc1ccc2c3c1O[C@H]1[C@@]4(OC)CC[C@@]5(C[C@@H]4COC(=O)[C@H](C)N)[C@@H](C2)N(CC2CC2)CC[C@]315
Ki [1]: 148 nM
Ki [4]: 1700 nM
EC50 [3]: 335 nM
Ki [5]: 6.63 nM

CO[C@]12CC[C@@]3(C[C@@H]1COCc1cccc(NC(C)=O)c1)[C@H]1Cc4ccc(O)c5c4[C@@]3(CCN1CC1CC1)[C@H]2O5
EC50 [3]: 0.2 nM
Ki [5]: 0.05 nM

COCCOCCOCCOCCOCCOc1ccc(COC[C@H]2C[C@@]34CC[C@]2(OC)[C@@H]2Oc5c(OC)ccc6c5[C@@]23CCN(CC2CC2)[C@@H]4C6)cc1
Ki [1]: 135 nM
Ki [4]: 1000 nM
Ki [5]: 42.5 nM

CO[C@]12CC[C@@]3(C[C@@H]1COCc1ccccc1)[C@H]1Cc4ccc(C#N)c5c4[C@@]3(CCN1CC1CC1)[C@H]2O5
Ki [1]: 82.5 nM
EC50 [2]: 215 nM
EC50 [3]: 27.7 nM
Ki [5]: 0.07 nM

COc1ccc2c3c1O[C@H]1[C@@]4(OC)CC[C@@]5(C[C@@H]4COCc4ccccc4)[C@@H](C2)N(Cc2nn[nH]n2)CC[C@]315
Ki [1]: 986 nM
EC50 [2]: 1360 nM

COCCOCCOCCOC[C@H]1C[C@@]23CC[C@]1(OC)[C@@H]1Oc4c(OC)ccc5c4[C@@]12CCN(CC1CC1)[C@@H]3C5
Ki [1]: 51.1 nM
Ki [4]: 3020 nM
EC50 [3]: 664 nM
Ki [5]: 37 nM

COc1ccc2c3c1O[C@H]1[C@@]4(OC)CC[C@@]5(C[C@@H]4COCc4ccc(NC(C)=O)cc4)[C@@H](C2)N(CC2CC2)CC[C@]315
Ki [1]: 156 nM
EC50 [3]: 589 nM
Ki [5]: 38.4 nM

COc1ccc2c3c1O[C@H]1[C@@]4(OC)CC[C@@]5(C[C@@H]4COCc4ccc(N(S(C)(=O)=O)S(C)(=O)=O)cc4)[C@@H](C2)N(CC2CC2)CC[C@]315
EC50 [3]: 277 nM
Ki [5]: 20.6 nM

COc1ccc2c3c1O[C@H]1[C@@]4(OC)CC[C@@]5(C[C@@H]4COCc4ccc(C(=O)NCC(=O)O)cc4)[C@@H](C2)N(CC2CC2)CC[C@]315
Ki [1]: 308 nM
EC50 [2]: 1290 nM
Ki [5]: 435 nM

COc1ccc2c3c1O[C@H]1[C@@]4(OC)CC[C@@]5(C[C@@H]4COCc4cccc(CC(=O)O)c4)[C@@H](C2)N(CC2CC2)CC[C@]315
EC50 [3]: 625 nM

COc1ccc2c3c1O[C@H]1[C@@]4(OC)CC[C@@]5(C[C@@H]4COCc4ccc(C(O)CO)cc4)[C@@H](C2)N(CC2CC2)CC[C@]315 (stereo not given in full)
Ki [1]: 54.8 nM
EC50 [3]: 156 nM

COCCOCCOCCOc1ccc(COC[C@H]2C[C@@]34CC[C@]2(OC)[C@@H]2Oc5c(OC)ccc6c5[C@@]23CCN(CC2CC2)[C@@H]4C6)cc1
Ki [1]: 87.9 nM
Ki [4]: 1980 nM
EC50 [3]: 1640 nM
Ki [5]: 47.3 nM

CO[C@]12CC[C@@]3(C[C@@H]1COCc1ccccc1)[C@H]1Cc4ccc(-c5nn[nH]n5)c5c4[C@@]3(CCN1CC1CC1)[C@H]2O5
Ki [1]: 339 nM
EC50 [2]: 552 nM

CO[C@]12CC[C@@]3(C[C@@H]1COCc1ccc(C(N)=O)cc1)[C@H]1Cc4ccc(O)c5c4[C@@]3(CCN1CC1CC1)[C@H]2O5
Ki [5]: 0.014 nM

COc1ccc2c3c1O[C@H]1[C@@]4(OC)CC[C@@]5([C@@H](CCC(=O)O)[C@@H]4COCc4ccccc4)[C@@H](C2)N(CC2CC2)CC[C@]315
Ki [1]: 927 nM
EC50 [3]: 1900 nM

COc1ccc2c3c1O[C@H]1[C@@]4(OC)CC[C@@]5(C[C@@H]4COCc4ccc(CC(=O)O)cc4)[C@@H](C2)N(CC2CC2)CC[C@]315
Ki [1]: 1010 nM
EC50 [3]: 901 nM
Ki [5]: 517 nM

COc1ccc2c3c1O[C@H]1[C@@]4(OC)CC[C@@]5(C[C@@H]4COCc4ccccc4)[C@@H](C2)N(CC(=O)O)CC[C@]315
Ki [1]: 312 nM
EC50 [2]: 982 nM
